From patent US5773239A, “Mannosidase inhibitors, process for their preparation and their use as therapeutic agents” (Mount Sinai Hospital Corporation., priority 1995, dated 1998)

Target: T1, Jack Bean α-mannosidase (Canavalia ensiformis, UniProt C0HJB3)
T1 construct: purchased Sigma
T1 sequence (C0HJB3 1-981): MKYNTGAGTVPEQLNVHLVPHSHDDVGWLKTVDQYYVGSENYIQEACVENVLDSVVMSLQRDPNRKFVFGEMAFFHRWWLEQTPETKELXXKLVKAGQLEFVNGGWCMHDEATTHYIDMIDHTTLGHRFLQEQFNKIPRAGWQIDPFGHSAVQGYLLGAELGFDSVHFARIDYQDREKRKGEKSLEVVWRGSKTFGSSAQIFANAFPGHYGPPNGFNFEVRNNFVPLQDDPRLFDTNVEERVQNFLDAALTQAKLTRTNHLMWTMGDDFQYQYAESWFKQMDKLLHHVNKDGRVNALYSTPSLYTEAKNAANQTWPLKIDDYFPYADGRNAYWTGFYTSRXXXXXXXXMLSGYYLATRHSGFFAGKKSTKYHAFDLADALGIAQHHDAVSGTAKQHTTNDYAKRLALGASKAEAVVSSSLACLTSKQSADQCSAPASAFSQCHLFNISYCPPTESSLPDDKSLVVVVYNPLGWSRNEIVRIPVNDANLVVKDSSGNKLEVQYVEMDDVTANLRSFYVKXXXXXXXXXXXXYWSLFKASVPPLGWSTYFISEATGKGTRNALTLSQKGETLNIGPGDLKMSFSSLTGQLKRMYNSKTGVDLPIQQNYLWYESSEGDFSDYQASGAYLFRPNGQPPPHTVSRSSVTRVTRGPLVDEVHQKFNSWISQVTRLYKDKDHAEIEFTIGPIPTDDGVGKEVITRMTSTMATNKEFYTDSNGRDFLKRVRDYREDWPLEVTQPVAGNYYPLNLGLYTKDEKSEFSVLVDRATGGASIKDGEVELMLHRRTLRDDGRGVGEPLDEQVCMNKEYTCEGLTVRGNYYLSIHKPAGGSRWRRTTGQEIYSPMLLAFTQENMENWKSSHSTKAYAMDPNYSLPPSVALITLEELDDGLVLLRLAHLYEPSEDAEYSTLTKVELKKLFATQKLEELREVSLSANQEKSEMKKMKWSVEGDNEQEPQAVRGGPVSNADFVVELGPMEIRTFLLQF
Test: Inhibition of Jack Bean α-mannosidase
Assay type: biochemical
Conditions: p-nitrophenyl α-D-mannopyranoside, pH 5.0, 20 min 37° C.; read-out: IC50 for inhibition of J.B. α-mannosidase
Experimental: SW and analogues were serially diluted into a volume of 75 μl in 96 well Elisa plates followed by the addition of 37.5 μl of 100 mM sodium acetate pH 5.0 and 37.5 μl of 10 mM p-nitrophenyl α-D-mannospyranoside. Jack Bean α-mannosidase (Sigma, 38 U/ml) was diluted 1/800, 10 μl was added to each well and the plates were incubated for 20 min at 37° C. The reaction was stopped by the addition of 150 μl of 0.5M sodium carbonate and formation of p-nitrophenol was measured with a plate set at 405 nm. The effects of SW and analogues on cellular acid α-mannosidases (ie. lysosomal enzyme) were measured using the same assay where Jack Bean α-mannosidase was replaced by 10 μl MDAY-D2 tumor cell lysate (10 μg/μl of protein) prepared in 0.9% NaCl, 50 mM Tris pH 7.0, 0.5% Triton X-100 and 1.0 mM diethyl p-nitrophenyl phosphate.

Q: `O[C@H]1[C@H]2[C@H](O)CCCN2C[C@H]1O` [SW, Swainsonine, reference compound] was tested. Which IC50 did it give?
A: 400 nM
